According to PubChem BioAssay (NCI):
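Dose response: 5 concentrations. Exposure: 48 h. Format: 96-well plates. Endpoint: linear interpolation; highest concentration if not reached. The concentration for 50% growth inhibition is given as GI50.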

What was measured:
Assay in all cases: NCI-60 cell line screen, 48 h; in the data active means GI50 below about 0.43 µM; inactive means the rest
[1] = test system: 786-0 renal
[2] = test system: A498 renal
[3] = test system: A549 NSCLC
[4] = test system: ACHN renal
[5] = test system: BT-549 breast
[6] = test system: CAKI-1 renal
[7] = test system: CCRF-CEM leukemia
[8] = test system: COLO 205 colon
[9] = test system: DU-145 prostate
[10] = test system: EKVX NSCLC
[11] = test system: HCC-2998 colon
[12] = test system: HCT-116 colon
[13] = test system: HCT-15 colon
[14] = test system: HL-60(TB) leukemia
[15] = test system: HOP-62 NSCLC
[16] = test system: HOP-92 NSCLC
[17] = test system: HS 578T breast
[18] = test system: HT29 colon
[19] = test system: IGROV1 ovarian
[20] = test system: K-562 leukemia
[21] = test system: KM12 colon
[22] = test system: LOX IMVI melanoma
[23] = test system: M14 melanoma
[24] = test system: MALME-3M melanoma
[25] = test system: MCF7 breast
[26] = test system: MDA-MB-231 breast
[27] = test system: MDA-MB-435
[28] = test system: MDA-N
[29] = test system: MOLT-4 leukemia
[30] = test system: NCI-H226 lung
[31] = test system: NCI-H23 lung
[32] = test system: NCI-H322M lung
[33] = test system: NCI-H460 lung
[34] = test system: NCI-H522 lung
[35] = test system: NCI/ADR-RES ovarian
[36] = test system: OVCAR-3 ovarian
[37] = test system: OVCAR-4 ovarian
[38] = test system: OVCAR-5 ovarian
[39] = test system: OVCAR-8 ovarian
[40] = test system: PC-3 prostate
[41] = test system: RPMI-8226 leukemia
[42] = test system: RXF 393 renal
[43] = test system: SF-268 CNS
[44] = test system: SF-295 CNS
[45] = test system: SF-539 CNS
[46] = test system: SK-MEL-2 melanoma
[47] = test system: SK-MEL-28 melanoma
[48] = test system: SK-MEL-5 melanoma
[49] = test system: SK-OV-3 ovarian
[50] = test system: SN12C renal
[51] = test system: SNB-19 CNS
[52] = test system: SNB-75 CNS
[53] = test system: SR leukemia
[54] = test system: SW-620 colon
[55] = test system: T-47D breast
[56] = test system: TK-10 renal
[57] = test system: U251 CNS
[58] = test system: UACC-257 melanoma
[59] = test system: UACC-62 melanoma
[60] = test system: UO-31 renal

Measured: GI50

CC(=O)n1c(=O)n(C2CCN(CCCC(=O)c3ccc(F)cc3)CC2)c2ccccc21
inactive: [1] 27.6 µM | [2] 69.4 µM | [3] 55.2 µM | [4] 73 µM | [5] 39.5 µM | [6] 62.2 µM | [7] 21.9 µM | [8] 17.5 µM | [9] > 100 µM | [10] 88.8 µM | [11] 30.2 µM | [12] 25.5 µM | [13] 52.6 µM | [14] 14.3 µM | [15] 33 µM | [16] 32.7 µM | [17] 33.7 µM | [18] 21.8 µM | [19] 61.8 µM | [20] 21.6 µM | [21] 29.7 µM | [22] 22.5 µM | [23] 18.3 µM | [24] 17.3 µM | [25] 27 µM | [26] 43.6 µM | [27] 26.1 µM | [28] 32.1 µM | [29] 18.7 µM | [30] 30.7 µM | [31] 57.1 µM | [32] 45.7 µM | [33] 27.9 µM | [34] 31.4 µM | [35] 54.7 µM | [36] 47.4 µM | [37] 34.3 µM | [38] 75.5 µM | [39] 52.9 µM | [40] 58.1 µM | [41] 19.3 µM | [42] 33.4 µM | [43] 62.1 µM | [44] 32.6 µM | [45] 25.3 µM | [46] 28 µM | [47] 26.6 µM | [48] 15 µM | [49] > 100 µM | [50] 89.2 µM | [51] > 100 µM | [52] 59.5 µM | [53] 15.8 µM | [54] 40.6 µM | [55] 31.1 µM | [56] 58.1 µM | [57] 55.2 µM | [58] 19.9 µM | [59] 31.2 µM | [60] 40.4 µM
